Target: recombinant human MAO-A (Homo sapiens, UniProt P21397)
Experiment: Monoamine oxidase-A inhibition assay (Amplex red fluorescence)
Type: biochemical
Conditions: single dose concentration of 100 µM; ±sem
Description: Two isoforms of MAOs, namely MAO-A and MAO-B, are expressed in CNS, showing different substrate specificity. Consequently, different pharmacological effects can be elicited depending on the inhibited MAO isoform. Therefore, the prepared O^6-aminoalkyl-hispidol analogs were evaluated against both recombinant human MAO-A and MAO-B isoforms following the well-established spectrophotometric method.
2. Biological evaluations
2.1. In vitro assay of human monoamine oxidases inhibition
The MAO activity was quantified by measuring fluorescence intensity evoked by Amplex red reaction in which Amplex red reacts with hydrogen peroxide from the MAO reaction to produce highly fluorescent resorufin. The test compound in DMSO (final concentration: 1 nM – 10 μM or 10 nM – 100 μM ) and hMAO enzyme (Sigma Aldrich, St. Louis, MO, USA) in 50 mM sodium phosphate buffer (pH 7.4, final protein amount: ~1.25 μg of MAO-A/well and 2.5 μg of MAO-B/well) were loaded on 96-well black plate and incubated for 15 min at 37 °C. […] The fluorescence was measured using a microplate reader (SpectraMax®i3, Molecular Device, San Jose, CA, USA) with an excitation at 545 nm and an emission at 590 nm. […]
of compounds were determined as the mean ± S.E.M. in triplicate from the dose-response inhibition curves using SigmaPlot® 13.0.

Chains of the proteins cited; added tags and fusions are not shown.
UniProt P21397, whole entry: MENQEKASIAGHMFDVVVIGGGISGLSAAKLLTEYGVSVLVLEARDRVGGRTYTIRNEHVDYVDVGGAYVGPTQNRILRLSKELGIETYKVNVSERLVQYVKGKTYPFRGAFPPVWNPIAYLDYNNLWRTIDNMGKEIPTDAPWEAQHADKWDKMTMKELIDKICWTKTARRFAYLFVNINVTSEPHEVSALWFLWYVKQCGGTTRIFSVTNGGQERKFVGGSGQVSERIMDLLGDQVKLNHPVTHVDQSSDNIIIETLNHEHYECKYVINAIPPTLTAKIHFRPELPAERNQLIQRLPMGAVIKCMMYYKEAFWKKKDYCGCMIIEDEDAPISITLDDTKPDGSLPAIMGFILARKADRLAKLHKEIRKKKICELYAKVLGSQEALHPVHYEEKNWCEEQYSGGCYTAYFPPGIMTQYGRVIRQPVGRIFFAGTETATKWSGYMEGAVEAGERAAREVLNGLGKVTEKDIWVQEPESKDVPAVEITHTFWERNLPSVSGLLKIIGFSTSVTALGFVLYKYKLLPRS

## C#CCN(C)CCCOc1ccc(Cl)cc1Cl [Clorgyline, reference compound]
  MAO-A % Inhibition: 100.49 ± 0.03%

From publication PMC10215199 (Antioxidants, 2023)
